Target: human V1a receptor (Homo sapiens, UniProt P37288)
Experiment: human V1a receptor binding (3H-Vasopressin SPA, HEK293 membranes)
Settings: displacement of 4 nM 3H-Vasopressin, membranes of HEK293 cells transiently transfected with human V1a receptor; Ki from IC50 by Cheng-Prussoff

Sequences of proteins named here, by UniProt entry; tags and fusion partners are left off.
UniProt P37288, whole entry: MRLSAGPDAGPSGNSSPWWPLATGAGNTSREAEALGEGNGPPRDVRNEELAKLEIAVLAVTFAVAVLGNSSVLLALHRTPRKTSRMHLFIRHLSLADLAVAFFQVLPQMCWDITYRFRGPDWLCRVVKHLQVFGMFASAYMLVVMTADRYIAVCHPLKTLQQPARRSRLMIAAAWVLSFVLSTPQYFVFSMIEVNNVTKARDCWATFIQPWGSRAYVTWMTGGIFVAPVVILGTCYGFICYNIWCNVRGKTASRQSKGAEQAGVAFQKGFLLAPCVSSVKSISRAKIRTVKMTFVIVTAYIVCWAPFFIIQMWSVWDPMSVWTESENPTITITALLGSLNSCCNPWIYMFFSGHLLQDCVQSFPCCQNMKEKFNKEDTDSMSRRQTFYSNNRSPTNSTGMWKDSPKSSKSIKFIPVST

Molecule O=C(c1c[nH]c2cc(Cl)ccc12)N1CCC2(CC1)COc1ccccc12 has a Ki of 15.8 nM.

Reference: patent publication US7332501B2, “Indol-3-yl-carbonyl-spiro-piperidine derivatives as V1a receptor antagonists” (Hoffmann-La Roche Inc., priority 2005, dated 2008)
